# Reference: PMC12198324
# Chains of the proteins cited; added tags and fusions are not shown.
# UniProt P33535, whole entry: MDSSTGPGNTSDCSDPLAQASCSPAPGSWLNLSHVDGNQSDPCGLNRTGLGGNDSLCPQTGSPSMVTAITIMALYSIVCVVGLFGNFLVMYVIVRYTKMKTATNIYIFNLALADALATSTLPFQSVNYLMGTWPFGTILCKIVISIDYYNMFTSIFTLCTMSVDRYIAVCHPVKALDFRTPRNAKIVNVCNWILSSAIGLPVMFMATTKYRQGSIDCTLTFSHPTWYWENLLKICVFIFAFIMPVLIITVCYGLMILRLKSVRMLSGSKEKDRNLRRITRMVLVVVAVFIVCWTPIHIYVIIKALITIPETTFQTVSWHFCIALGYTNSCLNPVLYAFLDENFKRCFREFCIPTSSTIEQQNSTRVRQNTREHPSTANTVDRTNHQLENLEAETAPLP
# Target: µOR (Rattus norvegicus, UniProt P33535)
# Assay: Antagonist reversal of opioid-induced cAMP inhibition in HEK293-µOR cells ([^3H]-adenine labelling)
# Conditions: antagonist 100 µM
structure (smiles),measurement,setting,value
C=C1CC[C@@]2(O)[C@H]3Cc4ccc(O)c5c4[C@@]2(CCN3CC2CC2)[C@H]1O5,Remaining opioid effect at 100 µM,agonist CAR (0.01 µM),6.4 ± 9%
same,Remaining opioid effect at 100 µM,agonist FEN (0.15 µM),0.2 ± 4%
same,Remaining opioid effect at 100 µM,agonist REMI (0.5 µM),6.3 ± 5%
